Measurements reported in patent US9980928B2, “Hydroxy aliphatic substituted phenyl aminoalkyl ether derivatives” (PROUS INSTITUTE FOR BIOMEDICAL RESEARCH, S.A., priority 2012, dated 2018).

Columns and labels:
Assay type in all cases: in vivo
[1] = tested on: mice; experiment: Tail suspension assay in mice; settings: 30 mg/kg intraperitoneally, 60 minutes after dosing
Description: Another method of measuring antidepressant activity that may be used to evaluate the compounds of the present invention is the tail suspension test in mice described in Vogel, H. G. and Vogel, W. H. (Eds.) Drug Discovery and Evaluation, Springer-Verlag Berlin Heidelberg, 1997) pp. 304-3059). The mouse tail suspension assay was conducted 60 minutes after dosing. The duration of immobility was recorded for a period of 5 minutes after tail suspension was initiated, and reduction in the duration of immobility by ≥50% relative to the control group indicated antidepressant activity. Statistical analysis was also performed by using one-way ANOVA followed by Dunnett's test to compare the data of test compound-treated and vehicle control groups. Significance was considered to be P<0.05.

[2] = tested on: fmr1 KO mice and wild type mice; experiment: Social behavior test in Fragile X (fmr1 KO) mouse model; settings: 30 mg/kg i.p. acute
Description: FIG. 4A plots the time (s) that the test mouse devotes to exploring two cylinders: a first cylinder containing a familiar genotype-matched juvenile stimulus mouse and a second cylinder containing a novel stimulus mouse and the total time of exploration (both cylinders) during a 10 min session. FIG. 4B Plots the percentage of time spent near the two cylinders during the 10 min session. FIG. 4C plots the Discrimination index (time exploring the novel stimulus−time exploring the familiar stimulus/total time of exploration×100).
N=10-12 mice per group. Mice had received an acute i.p. injection of saline (WT 1st bar, fmr1 KO 3rd bar) or 30 mg/kg Example 2 (Wild Type 2nd bar, fmr1 KO 4th bar) 24 h before the session. Data are expressed as mean±S.E.M. Two way ANOVA Treatment effect Φ p<0.05, Genotype x Treatment interaction p<0.05, Bonferroni as post hoc ***p<0.001, **p<0.01, *p<0.05.
Example 2 effects on social disability in a model of Fmr1 KO was performed. […]
1) Habituation session Animals were habituated for 10 min to an arena containing two empty transparent cylinders (30 cm diameter×40 cm high) made of Plexiglas. […] The discrimination index was calculated as time exploring the novel stimulus mouse−time exploring the familiar stimulus mouse/total time of exploration×100. […]

[3] = tested on: wild type old mice; experiment: Chronic 3 month treatment, novel object recognition in wild type old mice; settings: 10 mg/kg/day oral for 3 months
Description: The effects of chronic administration of the compound of Example 2 administered by oral intake (10 mg/kg/day during 3 months through access to inverted graduated 25 mL filled with tap water) on cognition in wild type old mice were studied. To examine the effect of chronic treatment for 3 months with the compound of Example 2, the novel objet recognition and the Y maze tests were used.

CNCCC(Oc1ccc(CCO)cc1)c1ccccc1.Cl (single isomer, unassigned) [Example 2, 2-[4-[3-(Methylamino)-1-phenylpropoxy]phenyl]ethanol hydrochloride] was tested, and the “reduction in the duration of immobility relative to the control group” value [1] was ≥ 50%, the “deficit in social recognition, discrimination index (FIG. 4C)” value [2] was “totally compensated the deficit” and the “discrimination index, novel object recognition” value [3] was “able to restore the discrimination index”.
